Measurements taken from US20220348565A1, “PHARMACEUTICAL COMPOUNDS” (SENTINEL ONCOLOGY LIMITED, priority 2019, published 2022).

Assay: Gravimetric solubility in water
Format: physicochemical
Procedure: The solubility in water of the salts was measured using a gravimetric solubility protocol.
(§1) 1 ml of water was charged into crystallisation tubes. The solid was weighed into a tared glass vial, added in portions to the solutions and the vial weighed after each addition until a hazy solution was observed. The amount in mg was then calculated to give the solubility in mg/ml.
as §1, with “The solubility in water of the salts was measured using a gravimetric solubility protocol. Thus, 1” for “1”, “mg/mL.” for “mg/ml.”

Solubility in water: 7500 µg/mL
Compound: CN(C)CCNC(=O)c1ccc(-c2ccc(-c3ccc(Cl)cc3)n2-c2ccccc2C(F)(F)F)cc1.O=C(O)C(O)C(O)C(=O)O [Tartrate Pattern B, (R)-4-[5-(4-chlorophenyl)-1-[2-(trifluoromethyl)phenyl]pyrrol-2-yl]-N-[2 (dimethylamino)ethyl]benzamide tartrate]
